Results as given in ChEMBL document CHEMBL5329216, “Discovery of conformationally constrained c-Abl inhibitors with potential neuroprotective effects against Parkinson's disease” (Bioorg Med Chem, 2023).

System: SH-SY5Y
Assay: Neuroprotective activity against MPP+-induced human SH-SY5Y cells assessed as reduction in cell death measured after 48 hrs by MTT assay
Type: functional, cell-based

Cc1cn(-c2cc(NC(=O)c3ccc(C)c(Nc4nccc(-c5cccnc5)n4)c3)cc(C(F)(F)F)c2)cn1 [NILOTINIB]
Activity: Dose-Dependent Effect
